The record followed here is BindingDB's records for doi:10.1016/j.bioorg.2016.06.001 (Tehran University of Medical Sciences, 2016).

Sequences of proteins named here, by UniProt entry; tags and fusion partners are left off.
UniProt Q9N1N9, whole entry: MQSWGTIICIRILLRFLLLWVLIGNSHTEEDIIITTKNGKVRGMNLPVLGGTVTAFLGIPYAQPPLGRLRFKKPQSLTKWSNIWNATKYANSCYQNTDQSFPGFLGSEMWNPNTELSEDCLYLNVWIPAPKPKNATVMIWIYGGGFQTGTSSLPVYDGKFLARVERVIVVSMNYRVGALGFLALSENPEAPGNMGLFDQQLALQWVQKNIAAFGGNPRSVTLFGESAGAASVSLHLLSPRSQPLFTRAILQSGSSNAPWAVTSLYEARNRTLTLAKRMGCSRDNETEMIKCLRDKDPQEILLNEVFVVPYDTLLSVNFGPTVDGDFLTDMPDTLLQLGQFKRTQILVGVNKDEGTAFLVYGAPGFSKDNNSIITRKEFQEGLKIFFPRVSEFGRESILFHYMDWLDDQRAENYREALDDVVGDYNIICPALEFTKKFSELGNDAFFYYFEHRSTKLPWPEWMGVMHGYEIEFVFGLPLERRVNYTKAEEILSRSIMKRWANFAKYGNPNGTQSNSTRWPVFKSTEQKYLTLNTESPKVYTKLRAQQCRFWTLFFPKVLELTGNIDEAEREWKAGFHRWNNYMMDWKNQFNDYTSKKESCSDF

Structures are written as SMILES.

The target in the assay is Carboxylic ester hydrolase (Equus caballus, UniProt Q9N1N9). Description: AChE and BChE Inhibition Assay. As to conditions: pH 8. On the procedure: In vitro AChEI activity was performed based on the modified Ellman's methodas previously reported by our group using a 96-well plate reader (BioTek ELx808). […] Each well contained 50 uL potassium phosphate buffer (KH2PO4/K2HPO4, 0.1 M, pH 8), 25 uL prepared sample as described above, 25 uL enzyme with final concentration of 0.22 U/mL in buffer. They were preincubated for 15 min at rt, and then 125 uL DTNB (3 mM in buffer) was added. […] The IC50 values were determined graphically from inhibition curves (log inhibitor concentration vs. percent of inhibition).

For orientation: IC50 means the point on the concentration scale where inhibition reaches its midpoint. Read a high IC50 as lower potency. In the case of `CCN(C)C(=O)Oc1cccc([C@H](C)N(C)C)c1` [3-[(1S)-1-(dimethylamino)ethyl]phenyl N-ethyl-N-methylcarbamate], the IC50 was determined as 7.72 µM.
